According to ChEMBL document CHEMBL3886853, “Substituted 4-aminocyclohexane derivatives” (2016):

Target: Mu-type opioid receptor (Homo sapiens, UniProt P35372)
Test: Binding Assay: The affinity to the human μ-opiate receptor was determined in a homogeneous preparation in microtiter plates. For this, dilution series of the respective compound to be tested were incubated for 90 minutes at room temperature with a receptor membrane preparation (15-40 mg of protein per 250 μl of incubation batch) of CHO-K 1 cells, which express the human μ-opiate receptor (RB-HOM r

COc1ccc(C2(N(C)C)CCC(c3ccccc3)(N(C)C)CC2)cc1 (stereo unspecified)
Ki: 660 nM
